Data set [1] concerns HSP27 mRNA in A431 cells. In words: HSP27 mRNA gene silencing analysis. The settings on record: A431, conjugate alone or + 100 nM SO1861-Ald-EMCH. It counts as cell-based. The source says:
RNA from cells was isolated and analysed according to standard protocols (Biorad). qPCR primers that were used are indicated in Table A10.

The test system of data set [2] is human red blood cells. As for the experimental part: Red blood cells (RBCs) were isolated from a buffy coat using a Ficoll gradient. The obtained RBC pellet (˜4-5 ml) was washed 2× with 50 ml DPBS (without Ca^2+/Mg^2+, PAN-Biotech GmbH). Cells were pelleted by centrifugation for 10 min, 800×g at RT. RBC were counted and resuspended at 500.000.000 c/ml in DPBS (without Ca^2+/Mg^2+), based on total cell count.
Saponin dilutions were prepared in DPBS (with Ca^2+/Mg^2+, PAN-Biotech GmbH), at 1.11×final strength. For positive lysis control a 0.02% Triton-X100 solution was prepared in DPBS^+/+. Of all compound solutions 135 μl was dispensed/well in a 96 well V-bottom plate. To this 15 μl RBC suspension was added and mixed shortly (10 sec-600 rpm). The plate was incubated 30 min at RT, with gentle agitation. Afterwards the plate was spun for 10 min at 800×g to pellet the RBC and 100-120 μl supernatant was transferred to a standard 96 wp (96 well-plate).

In the case of “cetuximab-HSP27BNA: cetuximab conjugated to the HSP27BNA (DAR1.5 or DAR4)”, the IC50 in data set [1] was above 100 nM.

Turning to “trastuzumab-SO1861 (DAR4): antibody-SO1861 conjugate, trastuzumab, DAR4”, the “initial hemolytic activity from (concentration onwards)” value in data set [2] is reported as at least 60.000 nM.

The term IC50 denotes the point on the concentration scale where inhibition reaches its midpoint.

For the origin of these results see patent US20230357310A1, “Saponin derivatives with improved therapeutic window” (priority 2019, published 2023).
